Experimental data as given in ChEMBL document CHEMBL1154750 (J Med Chem, 2010).

Test system: Influenza A virus
Assay: Antiviral activity against Influenza A virus (A/Puerto Rico/8/34(H1N1)) in MDCK cells assessed as reduction in plaque number by plaque reduction assay

Molecule `CCOC(=O)C1=C[C@@H](OC(CC)CC)[C@H](NC(C)=O)[C@@H](N)C1` [OSELTAMIVIR] has an IC50 of 194 nM.
